Measurements reported in ChEMBL document CHEMBL1128263, “N-(1-methyl-5-indolyl)-N'-(3-methyl-5-isothiazolyl)urea: a novel, high-affinity 5-HT2B receptor antagonist” (J Med Chem, 1995).

By UniProt entry, the sequences of proteins in these tests, tags left out.
UniProt P35462, whole entry: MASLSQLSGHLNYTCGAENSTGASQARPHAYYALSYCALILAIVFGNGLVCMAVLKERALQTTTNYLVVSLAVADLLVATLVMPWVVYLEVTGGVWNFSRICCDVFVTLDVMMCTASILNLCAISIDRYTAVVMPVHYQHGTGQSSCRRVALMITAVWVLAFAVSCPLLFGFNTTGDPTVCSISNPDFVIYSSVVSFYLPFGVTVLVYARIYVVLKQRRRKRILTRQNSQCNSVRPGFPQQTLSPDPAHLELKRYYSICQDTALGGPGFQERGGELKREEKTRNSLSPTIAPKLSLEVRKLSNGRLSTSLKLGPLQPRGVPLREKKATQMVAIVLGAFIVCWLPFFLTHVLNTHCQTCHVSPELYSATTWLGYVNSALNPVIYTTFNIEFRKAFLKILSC

Biological target: D(3) dopamine receptor (Homo sapiens, UniProt P35462)
Test: The binding affinity (pKi) measured against Dopamine receptor D3 (cloned human receptors in CHO cells) using [125I]iodosulpiride as radioligand
Type: cell-based

Ki: > 31.6 µM
SMILES: Cc1cc(NC(=O)Nc2ccc3c(ccn3C)c2)sn1
